Amino acid sequences for entries named in this document (tags omitted). Residues count along the entry.
UniProt P37231, 238-503 limits assumed: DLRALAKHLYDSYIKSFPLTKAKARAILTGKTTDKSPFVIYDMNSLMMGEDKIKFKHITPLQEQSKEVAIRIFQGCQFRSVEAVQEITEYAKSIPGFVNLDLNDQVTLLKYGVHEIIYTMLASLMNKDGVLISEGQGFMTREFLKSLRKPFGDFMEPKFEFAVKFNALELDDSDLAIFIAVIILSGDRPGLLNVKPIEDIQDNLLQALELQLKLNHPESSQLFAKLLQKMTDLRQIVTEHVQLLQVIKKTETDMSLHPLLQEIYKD

In patent publication US20080131534A1, “USE OF A PLANT EXTRACT OR PLANT JUICE” (Melbrosin International Produktions- und Vertriebs GesmbH & …, priority 2006, published 2008):

Target: T1, PPAR-gamma (Homo sapiens, UniProt P37231)
T1 construct: purchased Invitrogen
Assay: Polar Screen PPAR Competitive Assay (fluorescence polarization ligand binding)

Substance	EC50 (Table 1, result in words, *tested to a concentration of 0.1 M)	EC50 (Table 1, tested substances, read-out: EC50) [µM]
Alliin	does not bind*	–
Catechin	–	85

Like-named read-outs stand apart in the source and are kept apart here.
